Assay results from patent publication US20170172945A1, “METHODS OF TREATING BREAST CANCER” (Mitchell Woods Pharmaceuticals, Inc., priority 2014, published 2017).

Experiments:
MDA-MB-231 cells = assay: [3H]-thymidine incorporation assay in MDA-MB-231 cells; type: cell-based, Human; settings: serum-starved, 24 hours, with MNF
Procedure: (§1) Cells were seeded in 12-well plates at approximately 50,000 cells/well and incubated at 37° C. After 24 hours, the wells were rinsed with PBS and replaced with serum-free medium containing the appropriate concentration of the test compounds. After another 24-hour incubation at 37° C., 1 μCi of [^3H]-thymidine was added to each well and incubated at 37° C. for 16 hours. […] The lysate was then mixed with 3 mL of liquid scintillation cocktail (Beckman Coulter, Inc., Brea, Calif.), and radioactivity was measured by liquid scintillation counting using Beckman Coulter LS6000IC Scintillation Counter. Data are shown as CPM incorporated compared to the control cells.
(§2) CF-7 cells and MDA-MB-231 cells were seeded out on E-Plates and allowed to settle. Cells were stimulated with MNF. Cellular proliferation and adherence was measured every 15 minutes using xCELLigence RTCA station. The serum-starved cells were incubated with various amounts of (R,R′)-MNF concentrations for 24 hours and the levels of [3H]thymidine incorporation were measured.

MCF-7 cells = assay: [3H]-thymidine incorporation assay in MCF-7 cells; type: cell-based, Human; settings: serum-starved, 24 hours, with MNF
Procedure: as §1, §2

Cc1c(C(=O)NN2CCCCC2)nn(-c2ccc(Cl)cc2Cl)c1-c1ccc(I)cc1 [AM251, 1-(2,4-dichlorophenyl)-5-(4-iodophenyl)-4-methyl-N-(1-piperidyl)pyrazole-3-carboxamide]
blocking of the inhibitory effect of MNF on [3H]thymidine incorporation (MDA-MB-231 cells): blocked
blocking of the inhibitory effect of MNF on [3H]thymidine incorporation (MCF-7 cells): blocked
